# scFv variants of Ab-14 (light chain) against a SARS-CoV-2 spike peptide

Reference: Li et al. 2023, doi:10.1038/s41467-023-39022-2. File: FLAb, binding data.

Binding partner: SARS-CoV-2 spike HR2 peptide, sequence PDVDLGDISGINAS.

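The starting antibody came from a phage panning campaign against this peptide. This is the validation round: designs drawn from the data on random variants, tested in the same kind of assay. Several design methods are mixed in this list. Affinity was read by AlphaSeq, a pooled yeast mating assay with surface-displayed partners. After mating in shaken culture at 30 °C for 16 h, diploids were selected and their barcode pairs sequenced. Scores were corrected for input abundance and mapped to Kd with protein pairs of known affinity run in the same pool. The assay was run in six technical replicates.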

Ab-14 is the parent antibody, in scFv form: VH, then a 15-residue (Gly4Ser)3 linker, then VL. The heavy chain is unchanged in all variants.
VH: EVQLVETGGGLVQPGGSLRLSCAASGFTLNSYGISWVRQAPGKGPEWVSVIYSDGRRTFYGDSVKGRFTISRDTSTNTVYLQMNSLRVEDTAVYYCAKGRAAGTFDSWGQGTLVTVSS
VL: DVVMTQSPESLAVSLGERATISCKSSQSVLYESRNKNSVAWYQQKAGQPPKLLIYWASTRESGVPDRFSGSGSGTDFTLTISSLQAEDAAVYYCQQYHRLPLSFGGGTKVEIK

Each variant is given by its three light chain CDRs, as the data file delimits them; those of the parent are KSSQSVLYESRNKNSVA, WASTRES, QQYHRLPLS. This list holds designs with at most six substitutions. Numbers give log10(Kd / nM), so 0 is 1 nM and 3 is 1 µM. Smaller is tighter. An entry "nd" has no value in the source: the pair was not observed among the diploids in that replicate. This suggests poor binding but is not conclusive. A sequence measured in both rounds can read differently, since the two assays cover different ranges. The authors' rule: three or more of the six replicates give a measured affinity, fewer mean a poor binder. As a blank, each scFv also met three strains without target: over all light chain designs, 4% of these pairings were detected, typically at 2.64 and seldom below 1.59.

| CDR-L1 | CDR-L2 | CDR-L3 | log10 Kd, replicates |
|---|---|---|---|
| KLSQSWLYESRNKNAVA | EASQRES | QQYHRLPLS | 0.15 / 0.31 / 0.13 / -0.23 / 0.17 / 0.38 |
| KLSQSVLYESRQKNSVA | NASTRLS | QQYHRLPLS | 0.34 / 0.16 / 0.29 / 0.03 / 0.25 / 0.37 |
| KVSQSWLYESRNKNSVA | GASTRES | QQYHRLPLI | 0.61 / 0.67 / 0.32 / 0.61 / 0.44 / 0.71 |
| KLSQSVLYGDRNKNSVA | HASTRMS | QQYHRLPLY | 0.21 / 0.09 / 0.36 / 0.01 / 0.08 / 0.41 |
| KVSQSHLYESRNKNSVA | NASTRLS | QQYHRLPLS | 0.22 / 0.23 / 0.25 / 0.07 / 0.21 / 0.44 |
| KSSQSVLFESRDKNSVA | WASTRES | QQYHRLPLS | 1.56 / 1.31 / 1.90 / 0.99 / 1.24 / 1.81 |
| QMSQSVDYESRNKNSVA | WASTRES | QQYYRLPLS | 0.87 / 0.72 / 0.92 / 0.52 / 0.59 / 0.88 |
| KSSQSMLYESRNKNSVA | DASQRES | QQYHRLPLS | 0.48 / 0.35 / -0.03 / -0.30 / 0.11 / -0.05 |
| KLSQAFLYESRNKNSVA | DANTRES | QQYHRLPLS | -0.09 / -0.15 / -0.11 / -0.30 / -0.12 / 0.00 |
| KSSQSFLYESRNKNSVA | WASTRAS | QQYHRLPLK | 1.40 / 1.73 / 2.71 / nd / 3.56 / 3.12 |
| KISQSYHYESRNKNSVA | GASTRES | QQYHRLPLS | 0.11 / 0.35 / -0.20 / -0.02 / 0.09 / 0.08 |
| KMRQSVLQEFRNKNSVA | DASTRES | QQYHRLPLS | 0.25 / 0.19 / 0.07 / 0.03 / 0.14 / 0.40 |
| KSSISYEYESPNKNSVA | EASTRES | QQYHRLPLS | 1.70 / 0.72 / 1.10 / 0.93 / 0.87 / 0.84 |
| KCSQSVLYESRNKNAVA | DASTRES | QQYHWLPLS | 0.42 / 0.30 / 0.23 / -0.03 / 0.36 / 0.62 |
| KSSQSVLYESRNKNSVA | QASTRES | QQYTRLPLS | 1.68 / 1.50 / 1.86 / 1.43 / 1.73 / 1.83 |
| KLQQSELYESRMKNSVA | NASTRLS | QQYHRLPLS | 0.48 / 0.28 / 0.21 / 0.07 / -0.02 / 0.18 |
| KVSQSVLYESGTKNSVA | NASTRES | QQYHRLPLS | 0.42 / 0.22 / 0.50 / 0.28 / 0.34 / 0.43 |
| KLPQSYLYESRNKNSVA | NASTRES | QQYHRLPLS | -0.15 / -0.29 / -0.40 / -0.42 / -0.28 / -0.25 |
| HSSPSQLYESRNKNNVA | NASTRES | QQYHRLPLS | -0.43 / -0.44 / -0.75 / -0.67 / -0.44 / -0.57 |
| KISQSVLYESRNKNSVA | AASHRES | QQYHRLPWS | 1.19 / 0.48 / 0.45 / 0.60 / 0.70 / 0.94 |
| KFSQQMLYESRNKNNVA | HASHRES | QQYHRLPLS | 0.13 / 0.07 / 0.16 / 0.11 / 0.31 / 0.22 |
| KSSPSVWYESENKNSVA | NASTRMS | QQYHRLPLS | 0.47 / 1.02 / 0.24 / 0.75 / 0.14 / 0.38 |
| KSSQSYLYESRNTNSVA | GVSTRES | QQYHRAPLS | nd / nd / nd / nd / 2.28 / nd |
| KSSQSVLYESTNKNSVA | NASTRES | QQYHRLPLS | 0.14 / -0.21 / -0.26 / -0.07 / 0.01 / 0.03 |
| KSSFSVLYESRNKNSVA | WASTRES | QGYHRLPLS | nd / nd / nd / nd / nd / nd |
| KVSQSWLYESRNKNAVA | NASTRES | QQYHRLPLS | -0.25 / -0.28 / -0.37 / -0.34 / -0.32 / -0.16 |
| HSSPSYEYESRNKNSVA | NASTRES | QQYHRLPLS | 0.40 / 0.39 / 0.80 / 0.25 / 1.12 / 0.56 |
| KSSQSVGYESRNKNSVA | GASTRES | QQYHRLHGS | nd / nd / nd / nd / nd / nd |
| KSSQSLLYESRNKNSVA | AASQRES | QQYHRLPLS | 0.17 / -0.01 / -0.17 / -0.19 / -0.02 / 0.08 |
| KLPNSTLYESRQKNSVA | MASTRES | QQYHRLPLS | 0.95 / 0.71 / 0.75 / 0.82 / 0.56 / 0.92 |
| KSSQSVLQESRNKNSVA | GASTRES | QQYHRLPLS | nd / 1.02 / 0.78 / 0.67 / 1.38 / 1.81 |
| KSGQSVLYESRNKNSVA | HASTRES | QQYHRLPLS | 1.34 / 1.38 / 1.04 / 1.32 / 1.36 / 1.36 |
| KLLQSQEYESRNKNSVA | HASTRED | QQYHRLPLS | 0.18 / 0.22 / 0.38 / -0.13 / 0.44 / 0.29 |
| FVLQSVLYESRNFNSVA | HASTRED | QQYHRLPLS | 0.47 / 0.55 / 0.39 / 0.51 / 1.51 / 0.43 |
| KILQSVLYESRNKNSVA | HASTRED | QQYHQLPLS | -0.11 / 0.20 / 0.18 / 0.43 / 0.17 / 0.54 |
| KLSQSHLYESRMKNSVA | NASTREQ | QQYHRLPLS | 0.31 / 0.36 / 0.28 / 0.10 / 0.21 / 0.34 |

3 of these entries, quoted again:

| CDR-L1 | CDR-L2 | CDR-L3 | log10 Kd, replicates |
|---|---|---|---|
| HSSPSQLYESRNKNNVA | NASTRES | QQYHRLPLS | -0.43 / -0.44 / -0.75 / -0.67 / -0.44 / -0.57 |
| KLSQSWLYESRNKNAVA | EASQRES | QQYHRLPLS | 0.15 / 0.31 / 0.13 / -0.23 / 0.17 / 0.38 |
| KSSFSVLYESRNKNSVA | WASTRES | QGYHRLPLS | nd / nd / nd / nd / nd / nd |